{"sequences": {"note": "The chains behind the UniProt entries cited, without tags or fusion partners. Where a name states a change or a piece, a line headed by the entry shows the natural chain unless it says otherwise. Residues count along the entry.", "UniProt P41240": "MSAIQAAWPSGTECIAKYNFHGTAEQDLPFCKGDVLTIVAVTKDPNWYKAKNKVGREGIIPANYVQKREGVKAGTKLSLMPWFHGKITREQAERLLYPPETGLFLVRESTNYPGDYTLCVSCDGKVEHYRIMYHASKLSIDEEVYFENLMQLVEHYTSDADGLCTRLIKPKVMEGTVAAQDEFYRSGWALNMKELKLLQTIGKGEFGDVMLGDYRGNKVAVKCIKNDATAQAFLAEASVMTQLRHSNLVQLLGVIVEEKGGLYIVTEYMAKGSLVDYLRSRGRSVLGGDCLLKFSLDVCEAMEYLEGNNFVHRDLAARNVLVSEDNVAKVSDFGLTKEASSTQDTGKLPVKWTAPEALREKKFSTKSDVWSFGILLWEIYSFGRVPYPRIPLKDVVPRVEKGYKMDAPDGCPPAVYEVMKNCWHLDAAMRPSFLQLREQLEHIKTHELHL", "UniProt Q8IU85": "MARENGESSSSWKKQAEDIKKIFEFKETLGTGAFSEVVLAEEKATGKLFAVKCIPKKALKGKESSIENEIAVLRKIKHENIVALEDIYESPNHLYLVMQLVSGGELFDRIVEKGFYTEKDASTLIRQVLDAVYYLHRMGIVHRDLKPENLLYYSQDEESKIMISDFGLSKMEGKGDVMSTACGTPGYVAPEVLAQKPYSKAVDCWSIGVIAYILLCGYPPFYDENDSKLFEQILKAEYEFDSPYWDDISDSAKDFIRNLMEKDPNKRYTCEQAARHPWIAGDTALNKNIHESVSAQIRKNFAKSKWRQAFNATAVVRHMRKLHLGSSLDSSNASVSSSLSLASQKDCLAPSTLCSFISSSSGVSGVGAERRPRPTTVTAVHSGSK", "UniProt P54753, 34-998": "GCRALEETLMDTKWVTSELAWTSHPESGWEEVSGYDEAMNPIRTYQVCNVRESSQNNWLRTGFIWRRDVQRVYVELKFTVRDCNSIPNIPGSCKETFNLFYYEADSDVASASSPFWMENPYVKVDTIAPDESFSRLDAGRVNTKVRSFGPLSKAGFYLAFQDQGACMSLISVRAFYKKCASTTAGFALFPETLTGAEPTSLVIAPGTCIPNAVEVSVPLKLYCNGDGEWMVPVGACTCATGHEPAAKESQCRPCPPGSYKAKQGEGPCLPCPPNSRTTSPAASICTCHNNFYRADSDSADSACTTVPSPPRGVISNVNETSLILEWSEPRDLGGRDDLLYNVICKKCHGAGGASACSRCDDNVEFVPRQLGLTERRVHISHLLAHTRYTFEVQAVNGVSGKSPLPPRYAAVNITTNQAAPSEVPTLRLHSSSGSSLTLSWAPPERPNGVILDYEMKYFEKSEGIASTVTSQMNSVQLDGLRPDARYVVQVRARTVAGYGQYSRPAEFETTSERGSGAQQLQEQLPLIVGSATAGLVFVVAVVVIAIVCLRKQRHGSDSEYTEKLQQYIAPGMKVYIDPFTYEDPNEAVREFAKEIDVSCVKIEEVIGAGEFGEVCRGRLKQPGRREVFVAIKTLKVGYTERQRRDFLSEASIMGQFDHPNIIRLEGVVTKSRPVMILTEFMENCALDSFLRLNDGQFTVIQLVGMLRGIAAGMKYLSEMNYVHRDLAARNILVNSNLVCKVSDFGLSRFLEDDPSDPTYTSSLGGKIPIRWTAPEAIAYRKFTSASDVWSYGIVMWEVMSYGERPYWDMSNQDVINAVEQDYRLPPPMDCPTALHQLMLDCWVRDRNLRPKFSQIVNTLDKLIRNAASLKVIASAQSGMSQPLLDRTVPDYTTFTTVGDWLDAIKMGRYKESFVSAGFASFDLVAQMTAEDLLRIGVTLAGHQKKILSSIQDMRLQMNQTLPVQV", "UniProt P16591": "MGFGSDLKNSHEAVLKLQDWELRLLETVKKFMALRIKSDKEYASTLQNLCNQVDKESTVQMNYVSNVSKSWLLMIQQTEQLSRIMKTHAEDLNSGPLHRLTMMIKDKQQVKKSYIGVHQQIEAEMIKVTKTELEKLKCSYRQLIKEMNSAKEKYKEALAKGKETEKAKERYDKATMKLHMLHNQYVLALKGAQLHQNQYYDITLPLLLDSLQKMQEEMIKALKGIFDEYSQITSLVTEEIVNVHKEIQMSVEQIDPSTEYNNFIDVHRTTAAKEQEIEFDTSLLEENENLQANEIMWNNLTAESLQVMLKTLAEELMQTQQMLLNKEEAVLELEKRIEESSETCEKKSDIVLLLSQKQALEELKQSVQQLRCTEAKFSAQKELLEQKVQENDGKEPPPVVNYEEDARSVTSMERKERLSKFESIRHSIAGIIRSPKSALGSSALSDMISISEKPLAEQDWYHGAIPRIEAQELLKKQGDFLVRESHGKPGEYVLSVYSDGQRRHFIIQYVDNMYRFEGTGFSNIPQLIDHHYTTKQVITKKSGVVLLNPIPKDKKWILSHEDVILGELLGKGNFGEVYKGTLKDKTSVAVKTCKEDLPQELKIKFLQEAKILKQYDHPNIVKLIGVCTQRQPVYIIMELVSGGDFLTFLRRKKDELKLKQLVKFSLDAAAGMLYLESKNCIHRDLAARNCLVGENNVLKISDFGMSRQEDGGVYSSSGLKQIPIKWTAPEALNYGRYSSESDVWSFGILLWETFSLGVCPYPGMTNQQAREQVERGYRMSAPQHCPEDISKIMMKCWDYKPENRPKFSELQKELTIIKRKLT", "UniProt O43293": "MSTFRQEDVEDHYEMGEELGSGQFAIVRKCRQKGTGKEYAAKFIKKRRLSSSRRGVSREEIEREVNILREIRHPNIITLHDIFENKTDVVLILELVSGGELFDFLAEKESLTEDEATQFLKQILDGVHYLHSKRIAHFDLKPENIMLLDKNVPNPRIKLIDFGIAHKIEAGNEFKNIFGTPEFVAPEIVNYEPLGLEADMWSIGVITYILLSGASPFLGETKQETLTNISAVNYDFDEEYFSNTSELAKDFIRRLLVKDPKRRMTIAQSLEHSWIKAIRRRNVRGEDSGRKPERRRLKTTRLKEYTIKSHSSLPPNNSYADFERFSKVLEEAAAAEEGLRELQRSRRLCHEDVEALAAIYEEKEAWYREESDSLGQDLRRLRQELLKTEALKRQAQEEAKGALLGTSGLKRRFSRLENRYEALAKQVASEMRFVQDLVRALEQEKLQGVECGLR", "UniProt Q00535, whole entry": "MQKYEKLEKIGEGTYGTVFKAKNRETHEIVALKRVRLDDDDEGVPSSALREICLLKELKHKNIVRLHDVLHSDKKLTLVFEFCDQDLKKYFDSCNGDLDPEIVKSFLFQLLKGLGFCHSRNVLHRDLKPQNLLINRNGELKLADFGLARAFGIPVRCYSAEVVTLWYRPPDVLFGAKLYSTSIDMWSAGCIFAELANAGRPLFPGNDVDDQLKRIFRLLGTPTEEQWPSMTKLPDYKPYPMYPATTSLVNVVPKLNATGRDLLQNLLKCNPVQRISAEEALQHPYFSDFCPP", "UniProt P07947, whole entry": "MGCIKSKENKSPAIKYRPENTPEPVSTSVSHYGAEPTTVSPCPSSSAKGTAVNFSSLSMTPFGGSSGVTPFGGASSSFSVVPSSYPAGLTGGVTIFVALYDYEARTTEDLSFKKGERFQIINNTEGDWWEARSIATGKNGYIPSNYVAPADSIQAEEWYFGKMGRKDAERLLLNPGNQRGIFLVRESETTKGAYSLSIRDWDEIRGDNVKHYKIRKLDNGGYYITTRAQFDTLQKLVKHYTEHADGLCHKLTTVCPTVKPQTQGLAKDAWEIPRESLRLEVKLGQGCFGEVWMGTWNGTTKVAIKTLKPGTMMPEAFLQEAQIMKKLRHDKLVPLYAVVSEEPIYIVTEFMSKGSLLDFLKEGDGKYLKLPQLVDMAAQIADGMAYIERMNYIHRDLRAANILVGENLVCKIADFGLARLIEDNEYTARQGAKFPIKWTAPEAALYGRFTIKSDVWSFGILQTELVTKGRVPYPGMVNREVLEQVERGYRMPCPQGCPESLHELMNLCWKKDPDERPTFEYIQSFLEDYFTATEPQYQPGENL", "UniProt Q15759, whole entry": "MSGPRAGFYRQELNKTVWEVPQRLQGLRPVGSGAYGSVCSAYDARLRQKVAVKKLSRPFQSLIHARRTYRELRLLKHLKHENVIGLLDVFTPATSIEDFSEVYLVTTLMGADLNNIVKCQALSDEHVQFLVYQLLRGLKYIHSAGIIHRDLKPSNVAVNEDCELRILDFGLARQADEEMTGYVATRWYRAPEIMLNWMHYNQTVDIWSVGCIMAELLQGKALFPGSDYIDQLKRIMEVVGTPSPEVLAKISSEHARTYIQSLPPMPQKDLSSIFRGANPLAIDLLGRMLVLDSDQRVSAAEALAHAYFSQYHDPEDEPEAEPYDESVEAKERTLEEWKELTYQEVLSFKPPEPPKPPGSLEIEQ", "UniProt P35916, 25-1363": "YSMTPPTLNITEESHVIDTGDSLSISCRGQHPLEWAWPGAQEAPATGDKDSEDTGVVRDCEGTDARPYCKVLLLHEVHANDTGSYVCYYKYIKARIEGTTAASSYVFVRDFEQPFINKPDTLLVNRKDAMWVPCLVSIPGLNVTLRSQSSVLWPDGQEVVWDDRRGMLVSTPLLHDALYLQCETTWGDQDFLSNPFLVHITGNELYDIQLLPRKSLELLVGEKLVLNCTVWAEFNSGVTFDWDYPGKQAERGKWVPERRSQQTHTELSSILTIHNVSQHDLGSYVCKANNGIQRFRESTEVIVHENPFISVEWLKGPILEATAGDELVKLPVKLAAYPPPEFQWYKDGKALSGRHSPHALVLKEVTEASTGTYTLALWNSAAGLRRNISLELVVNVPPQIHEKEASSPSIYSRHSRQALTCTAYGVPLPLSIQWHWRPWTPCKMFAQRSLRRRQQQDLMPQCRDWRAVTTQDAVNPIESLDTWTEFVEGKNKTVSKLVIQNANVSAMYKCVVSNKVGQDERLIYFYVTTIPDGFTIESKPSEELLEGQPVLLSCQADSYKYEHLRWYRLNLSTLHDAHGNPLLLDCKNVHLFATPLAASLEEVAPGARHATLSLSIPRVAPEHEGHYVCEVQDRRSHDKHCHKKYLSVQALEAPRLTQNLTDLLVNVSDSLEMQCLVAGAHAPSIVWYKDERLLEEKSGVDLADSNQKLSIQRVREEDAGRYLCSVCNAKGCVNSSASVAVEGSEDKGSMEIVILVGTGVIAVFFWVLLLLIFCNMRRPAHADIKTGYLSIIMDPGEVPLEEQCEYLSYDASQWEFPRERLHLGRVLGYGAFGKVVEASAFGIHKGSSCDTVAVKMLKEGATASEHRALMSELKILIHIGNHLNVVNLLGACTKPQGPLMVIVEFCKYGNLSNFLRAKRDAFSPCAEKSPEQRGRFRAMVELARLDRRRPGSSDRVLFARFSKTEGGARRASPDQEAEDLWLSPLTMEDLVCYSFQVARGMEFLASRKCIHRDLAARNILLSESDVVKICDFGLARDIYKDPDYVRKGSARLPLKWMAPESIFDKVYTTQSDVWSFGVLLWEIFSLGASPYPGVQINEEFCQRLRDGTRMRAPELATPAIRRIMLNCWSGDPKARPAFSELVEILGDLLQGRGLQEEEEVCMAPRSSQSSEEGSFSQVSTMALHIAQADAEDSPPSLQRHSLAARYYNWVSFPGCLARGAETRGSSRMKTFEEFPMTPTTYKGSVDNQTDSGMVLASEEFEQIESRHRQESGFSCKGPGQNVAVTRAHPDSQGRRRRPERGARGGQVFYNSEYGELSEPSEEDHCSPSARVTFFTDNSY", "UniProt Q15418, whole entry": "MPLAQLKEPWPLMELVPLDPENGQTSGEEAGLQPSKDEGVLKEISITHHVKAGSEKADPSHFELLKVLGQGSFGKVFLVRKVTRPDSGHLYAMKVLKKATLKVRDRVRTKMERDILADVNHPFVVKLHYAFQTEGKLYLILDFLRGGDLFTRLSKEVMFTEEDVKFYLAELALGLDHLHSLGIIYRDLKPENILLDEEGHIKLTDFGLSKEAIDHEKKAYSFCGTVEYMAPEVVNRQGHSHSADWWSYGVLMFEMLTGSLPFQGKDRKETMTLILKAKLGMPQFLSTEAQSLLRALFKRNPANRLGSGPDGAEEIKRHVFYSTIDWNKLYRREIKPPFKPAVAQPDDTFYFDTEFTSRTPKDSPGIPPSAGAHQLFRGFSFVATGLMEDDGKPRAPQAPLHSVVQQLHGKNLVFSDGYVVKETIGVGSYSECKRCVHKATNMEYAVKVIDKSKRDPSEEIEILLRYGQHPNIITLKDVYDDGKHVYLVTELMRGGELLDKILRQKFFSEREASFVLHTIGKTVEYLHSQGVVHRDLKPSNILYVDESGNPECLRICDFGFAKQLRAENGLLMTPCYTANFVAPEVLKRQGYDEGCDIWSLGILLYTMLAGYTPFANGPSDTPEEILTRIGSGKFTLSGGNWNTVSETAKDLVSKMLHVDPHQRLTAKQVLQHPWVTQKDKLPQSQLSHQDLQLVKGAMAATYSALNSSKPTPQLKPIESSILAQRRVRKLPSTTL"}, "source": "patent US20150258192A1", "about": "“COMPOSITIONS AND METHODS FOR PREVENTING OR TREATING CHRONIC LUNG ALLOGRAFT DYSFUNCTION (CLAD) AND IDIOPATHIC PULMONARY FIBROSIS (IPF)” (priority 2014, published 2015)", "assay_in_all_cases": "Kinase Profiling Assay", "format_in_all_cases": "biochemical", "conditions_in_all_cases": "peptide 100 μM", "key": {"[1]": {"biological_target": "Ron(h) (Homo sapiens, UniProt Q04912)", "how_it_was_run": "(§1)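 Each kinase activity was measured in duplicate. Phosphorylation of a positively charged substrate with radiolabeled phosphate from ATP was captured on a negatively charged filter, counted by scintillation and expressed relative to a 100% activity control. MK2 inhibitory peptides were screened for specificity across 266 human kinases.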"}, "[2]": {"biological_target": "EGFR(T790M, L858R)(h) (Homo sapiens, UniProt P00533, L858R/T790M)", "how_it_was_run": "as §1"}, "[3]": {"biological_target": "CSK(h) (Homo sapiens, UniProt P41240)", "how_it_was_run": "as §1"}, "[4]": {"biological_target": "CaMKIδ(h) (Homo sapiens, UniProt Q8IU85)", "how_it_was_run": "as §1"}, "[5]": {"biological_target": "T1, IRAK4(h) (Homo sapiens, UniProt Q9NWZ3)", "T1 construct": "purchased Millipore", "how_it_was_run": "as §1"}, "[6]": {"biological_target": "EphB3(h) (Homo sapiens, UniProt P54753)", "how_it_was_run": "as §1"}, "[7]": {"biological_target": "RIPK2(h) (Homo sapiens, UniProt O43353)", "how_it_was_run": "as §1"}, "[8]": {"biological_target": "Fer(h) (Homo sapiens, UniProt P16591)", "how_it_was_run": "as §1"}, "[9]": {"biological_target": "PKCβI(h) (Homo sapiens, UniProt P05771)", "how_it_was_run": "as §1"}, "[10]": {"biological_target": "ZIPK(h) (Homo sapiens, UniProt O43293)", "how_it_was_run": "as §1"}, "[11]": {"biological_target": "CDK5/p25(h) (Homo sapiens, UniProt Q00535)", "how_it_was_run": "as §1"}, "[12]": {"biological_target": "Yes(h) (Homo sapiens, UniProt P07947)", "how_it_was_run": "as §1"}, "[13]": {"biological_target": "T2, Met(D1246N)(h) (Homo sapiens, UniProt P08581, D1228N)", "T2 construct": "purchased Millipore", "how_it_was_run": "as §1"}, "[14]": {"biological_target": "Pim-1(h) (Homo sapiens, UniProt P11309)", "how_it_was_run": "as §1"}, "[15]": {"biological_target": "T3, SAPK2b(h) (Homo sapiens, UniProt Q15759)", "T3 construct": "purchased Millipore", "how_it_was_run": "as §1"}, "[16]": {"biological_target": "FGFR3(h) (Homo sapiens, UniProt P22607)", "how_it_was_run": "as §1"}, "[17]": {"biological_target": "T4, MINK(h) (Homo sapiens, UniProt Q8N4C8)", "T4 construct": "purchased Millipore", "how_it_was_run": "as §1"}, "[18]": {"biological_target": "Flt4(h) (Homo sapiens, UniProt P35916)", "how_it_was_run": "as §1"}, "[19]": {"biological_target": "T5, MLCK(h) (Homo sapiens, UniProt Q9H1R3)", "T5 construct": "purchased Millipore", "how_it_was_run": "as §1"}, "[20]": {"biological_target": "T6, MST2(h) (Homo sapiens, UniProt Q13188)", "T6 construct": "purchased Millipore", "T6 sequence (Q13188 1-491)": "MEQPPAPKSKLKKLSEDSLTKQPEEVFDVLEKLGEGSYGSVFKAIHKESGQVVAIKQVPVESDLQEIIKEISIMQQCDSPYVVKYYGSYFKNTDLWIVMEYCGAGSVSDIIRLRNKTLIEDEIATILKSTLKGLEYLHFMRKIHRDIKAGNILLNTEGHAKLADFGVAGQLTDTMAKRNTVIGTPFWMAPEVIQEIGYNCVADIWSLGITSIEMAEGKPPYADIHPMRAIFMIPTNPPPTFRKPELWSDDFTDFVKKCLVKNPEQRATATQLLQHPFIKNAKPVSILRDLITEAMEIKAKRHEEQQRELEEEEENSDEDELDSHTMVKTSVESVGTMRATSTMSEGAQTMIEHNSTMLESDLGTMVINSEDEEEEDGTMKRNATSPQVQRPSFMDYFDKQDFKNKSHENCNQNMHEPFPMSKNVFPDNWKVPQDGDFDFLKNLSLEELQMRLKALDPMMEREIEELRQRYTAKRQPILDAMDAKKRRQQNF", "how_it_was_run": "as §1"}, "[21]": {"biological_target": "Rsk1(h) (Homo sapiens, UniProt Q15418)", "how_it_was_run": "as §1"}, "[22]": {"biological_target": "T7, BrSK2(h) (Homo sapiens, UniProt Q8IWQ3)", "T7 sequence (Q8IWQ3 1-736)": "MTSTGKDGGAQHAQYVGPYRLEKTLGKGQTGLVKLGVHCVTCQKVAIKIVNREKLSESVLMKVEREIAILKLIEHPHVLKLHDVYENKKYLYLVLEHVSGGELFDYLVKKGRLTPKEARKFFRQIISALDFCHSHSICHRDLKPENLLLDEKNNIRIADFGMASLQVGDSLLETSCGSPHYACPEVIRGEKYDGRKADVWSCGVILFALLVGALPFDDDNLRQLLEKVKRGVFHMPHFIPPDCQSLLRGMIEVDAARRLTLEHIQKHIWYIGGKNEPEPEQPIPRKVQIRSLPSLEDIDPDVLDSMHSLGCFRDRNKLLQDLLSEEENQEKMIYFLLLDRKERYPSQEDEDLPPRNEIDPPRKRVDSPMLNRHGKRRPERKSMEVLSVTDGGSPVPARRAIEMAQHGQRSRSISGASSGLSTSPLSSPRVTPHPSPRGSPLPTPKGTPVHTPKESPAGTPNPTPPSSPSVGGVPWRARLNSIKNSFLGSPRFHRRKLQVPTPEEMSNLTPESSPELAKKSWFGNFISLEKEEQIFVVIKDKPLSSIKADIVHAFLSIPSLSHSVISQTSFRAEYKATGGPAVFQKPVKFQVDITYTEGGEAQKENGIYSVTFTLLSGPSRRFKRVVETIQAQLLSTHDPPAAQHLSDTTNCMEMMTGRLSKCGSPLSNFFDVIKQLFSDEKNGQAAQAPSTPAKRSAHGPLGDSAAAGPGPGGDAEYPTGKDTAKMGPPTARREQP", "how_it_was_run": "as §1"}}}
{"compound": "CC(C)C[C@H](NC(=O)[C@H](C)NC(=O)[C@H](CCCCN)NC(=O)[C@H](C)NC(=O)[C@H](CCCNC(=N)N)NC(=O)[C@H](C)NC(=O)[C@H](CCC(N)=O)NC(=O)[C@H](CCCNC(=N)N)NC(=O)[C@H](C)NC(=O)[C@H](C)NC(=O)[C@H](C)NC(=O)[C@H](CCCNC(=N)N)NC(=O)[C@H](C)NC(=O)[C@@H](N)Cc1ccc(O)cc1)C(=O)N[C@@H](C)C(=O)N[C@@H](CCCNC(=N)N)C(=O)N[C@@H](CCC(N)=O)C(=O)N[C@@H](CC(C)C)C(=O)NCC(=O)N[C@H](C(=O)N[C@@H](C)C(=O)N[C@@H](C)C(=O)O)C(C)C", "note": "[MMI-0100]", "values": [{"measurement": "% activity", "setting": "[1]", "value": 117, "unit": "%"}, {"measurement": "% activity", "setting": "[2]", "value": 93, "unit": "%"}, {"measurement": "% activity", "setting": "[3]", "value": 70, "unit": "%"}, {"measurement": "% activity", "setting": "[4]", "value": 59, "unit": "%"}, {"measurement": "% activity", "setting": "[5]", "value": 100, "unit": "%"}, {"measurement": "% activity", "setting": "[6]", "value": 109, "unit": "%"}, {"measurement": "% activity", "setting": "[7]", "value": 92, "unit": "%"}, {"measurement": "% activity", "setting": "[8]", "value": 117, "unit": "%"}, {"measurement": "% activity", "setting": "[9]", "value": 88, "unit": "%"}, {"measurement": "% activity", "setting": "[10]", "value": 80, "unit": "%"}, {"measurement": "% activity", "setting": "[11]", "value": 114, "unit": "%"}, {"measurement": "% activity", "setting": "[12]", "value": 49, "unit": "%"}, {"measurement": "% activity", "setting": "[13]", "value": 114, "unit": "%"}, {"measurement": "% activity", "setting": "[14]", "value": 44, "unit": "%"}, {"measurement": "% activity", "setting": "[15]", "value": 99, "unit": "%"}]}
{"compound": "FAKLAARLYRKALARQLGVAA [MMI-0300]", "values": [{"measurement": "% activity", "setting": "[16]", "value": 102, "unit": "%"}]}
{"compound": "YARAAARQARAKALNRQLGVA (Mammal) [MMI-0200]", "values": [{"measurement": "% activity", "setting": "[17]", "value": 103, "unit": "%"}, {"measurement": "% activity", "setting": "[18]", "value": 105, "unit": "%"}, {"measurement": "% activity", "setting": "[19]", "value": 103, "unit": "%"}, {"measurement": "% activity", "setting": "[20]", "value": 104, "unit": "%"}, {"measurement": "% activity", "setting": "[21]", "value": 102, "unit": "%"}, {"measurement": "% activity", "setting": "[22]", "value": 102, "unit": "%"}]}
